According to patent publication US6881824B1, “Peptides suitable for use in antigen specific immunosuppressive therapy” (Akzo Nobel N.V., priority 1996, dated 2005):

Molecular target: T1, DR4 (DRB1*0401) molecules (Homo sapiens, UniProt P01903+P01911, A100K/A169T/F76Y/I96L/K127E/L162R/M171V/N62H/P40V/Q125Y/R42H/S133A/S149N/S66Y/V115G/V209L/W38E)
T1 construct: molecules were purified from the homozygous EBV-transformed human B lymphoblastoid cell lines Huly138IC2 and BM92 using the mAb; endogenous in cells
Assay: Peptide HLA-DR binding assay (semi-quantitative competition binding)
Protocol: DR4 (DRB1*0401) and DR4 (DRB1*0404) molecules were purified from the homozygous EBV-transformed human B lymphoblastoid cell lines Huly138IC2 and BM92 using the mAb t243, directed against a monomorphic determinant on the DR-complex (Lampson, L. A and R. Levy (1980), J. Immunol. 125:293 299).
The peptide binding studies were performed using a semi-quantitative competition binding assay (Joosten et al 1994, Int. Immunol. 6, 751). […]
After 0.5-1 hr, the filters were washed in PBS, 0.05% Tween 20 (Sigma) and incubated with Strepcavidin-HRPO (Southern Biotechnology) in a 1:10.000 dilution. Biotinylated peptides were detected by enhanced chemiluminescence using a Western Blot ECL kit (Amersham). […] The spots were analysed by scanning the films and using Image Quant/Excel software for analysis. […]

SMILES: CC[C@H](C)[C@H](NC(=O)[C@@H](NC(=O)[C@H](Cc1c[nH]cn1)NC(=O)[C@@H](NC(=O)[C@H](CS)NC(=O)[C@H](CC(C)C)NC(=O)[C@H](Cc1ccccc1)NC(=O)[C@H](CCCNC(=N)N)NC(=O)[C@H](CC(=O)O)NC(=O)[C@H](CC(C)C)NC(=O)[C@H](C)NC(=O)[C@H](CC(=O)O)NC(=O)[C@@H]1CCCN1C(=O)[C@H](Cc1ccccc1)NC(=O)[C@H](CS)NC(=O)[C@@H](N)CO)[C@@H](C)O)[C@@H](C)CC)C(=O)O [compound 4, SCFPDALDRFLCTHII]
- Relative affinity of binding to DR4 (DRB1*0401), in words: high to intermediate relative affinity
